The assay deals with dissociated cerebral cortical cultures. The settings on record: TTX-treated cerebral cortical cultures.

Results on one sequence are retold here after patent US7427590B2, “Neurothrophic components of the ADNF I complex” (The United States of America as represented by the …, priority 2001, dated 2008).

With NPSGTDWLNTNNQANPFN, the “Neuronal survival with synthesized peptide” value is listed as “increase in neuronal survival”.
